Test results: ChEMBL document CHEMBL1138339, “Novel, orally effective cyanide antidotes” (2007)

Key:
Mus musculus [1] = assay: Protection against cyanide-induced toxicity in mouse assessed as survival at 0.29 mmol/kg, ip administered 5 mins before cyanide treatment
Mus musculus [2] = assay: Protective index ratio, Recovery time for protection against cyanide-induced toxicity in mouse at 1.45 mmol/kg, po administered 60 mins before cyanide treatment over cyanide-induced toxicity in control
Mus musculus [3] = assay: Protection against cyanide-induced toxicity in mouse assessed as survival at 0.29 mmol/kg, ip administered 5 mins after cyanide treatment
Mus musculus [4] = assay: Protective index ratio, Recovery time for protection against cyanide-induced toxicity in mouse at 0.29 mmol/kg, ip administered 5 mins after cyanide treatment over cyanide-induced toxicity in control
Mus musculus [5] = assay: Protective index ratio, Recovery time for protection against cyanide-induced toxicity in mouse at 0.29 mmol/kg, ip administered 5 mins before cyanide treatment over cyanide-induced toxicity in control
Mus musculus [6] = assay: Protection against cyanide-induced toxicity in mouse assessed as survival at 1.45 mmol/kg, po administered 30 mins before cyanide treatment
Mus musculus [7] = assay: Protection against cyanide-induced toxicity in mouse assessed as survival at 1.45 mmol/kg, po administered 60 mins before cyanide treatment
Mus musculus [8] = assay: Protective index ratio, Recovery time for protection against cyanide-induced toxicity in mouse at 1.45 mmol/kg, po administered 30 mins before cyanide treatment over cyanide-induced toxicity in control

SMILES: CCOC(=O)C1(CS)N[C@H](C(=O)O)CS1 (stereo not given in full)
- Survival (Mus musculus [1]): 100%
- Ratio (Mus musculus [2]): 2
- Survival (Mus musculus [3]): 100%
- Ratio (Mus musculus [4]): 1.4
- Ratio (Mus musculus [5]): 1.6
- Survival (Mus musculus [6]): 100%
- Survival (Mus musculus [7]): 100%
- Ratio (Mus musculus [8]): 2.1

SMILES: CCOC(=O)[C@@]1(O)CS[C@](O)(C(=O)OCC)CS1
- Survival (Mus musculus [1]): 100%
- Survival (Mus musculus [3]): 100%
- Ratio (Mus musculus [4]): 3.9
- Ratio (Mus musculus [5]): 7.6
- Survival (Mus musculus [6]): 100%
- Ratio (Mus musculus [8]): 4.6

SMILES: O=C([O-])[C@@]1(O)CS[C@](O)(C(=O)[O-])CS1.[Na+].[Na+]
- Survival (Mus musculus [6]): 100%
- Ratio (Mus musculus [8]): 4

SMILES: CC(=O)O/C(=C\SC(C)=O)C(=O)O
- Survival (Mus musculus [1]): 100%
- Ratio (Mus musculus [2]): 2.1
- Survival (Mus musculus [3]): 100%
- Ratio (Mus musculus [4]): 1.7
- Ratio (Mus musculus [5]): 7.6
- Survival (Mus musculus [6]): 100%
- Survival (Mus musculus [7]): 100%
- Ratio (Mus musculus [8]): 2.8

SMILES: CCOC(=O)/C(=C/SC(C)=O)OC(C)=O
- Survival (Mus musculus [1]): 100%
- Survival (Mus musculus [3]): 100%
- Ratio (Mus musculus [4]): 2.3
- Ratio (Mus musculus [5]): 6.4
- Survival (Mus musculus [6]): 100%
- Ratio (Mus musculus [8]): 5.4
